# In paper PMC6154319, “Intestinal Transport Characteristics and Metabolism of C-Glucosyl Dihydrochalcone, Aspalathin” (Molecules : A Journal of Synthetic Chemistry and Natural …, 2017):
# Assay: Acute mouse study, metabolite identification in blood and urine by LC-MS/MS
# Assay type: in vivo
# Details: oral 50 mg/kg aspalathin, urine over 8 h, tentative identification by LC-MS/MS
# Experimental: An acute mouse study was performed under ethical approval from the Ethics Committee for Research on Animals (ECRA) of the South African Medical Research Council (Ref:07/13). Three 8-week old male C57.BKS mice, obtained from the Primate Unit of the South African Medical Research Council (Tygerberg, South Africa), were housed individually in polycarbonate cages with wired lids and kept in a controlled environment of 23–24 °C, 50% humidity, and a 12 h light/dark cycle. Prior to the study, urine was collected from the fasting mice overnight in a metabolic cage. Baseline fasted blood was collected via tail snip into a heparin tube, snap frozen in liquid nitrogen, and stored at −80 °C. Each mouse received a single dose of synthetic aspalathin (50 mg/kg body weight) dissolved in phosphate-buffered saline (PBS) (5 mg/mL) via orogastric gavage. Blood samples were collected and handled as described for fasting at time 0 (pre-gavage), and 1, 2, 4, 6, and 8 h post-gavage. All the samples were collected into the same heparin tube and kept on ice during the experiment. Urine was collected over the 8-h post-gavage monitoring period and the samples were stored at −80 °C until analysis.
# The frozen whole blood samples, as well as the samples incubated with microsomes and controls, were thawed, extracted by protein precipitation using 0.1% formic acid (FA) in acetonitrile, centrifuged and filtered through 0.22 µm polyvinylidene difluoride (PVDF) filters (Merck Millipore, Frankfurter Straße, Darmstadt, Germany). Frozen whole urine samples were thawed and diluted 5 times in 0.1% aqueous FA. Samples were analysed by LC-MS/MS on an Agilent 1200 Rapid Resolution HPLC system (600 bar, Agilent Technologies) coupled to a 4000 QTRAP® (AB Sciex, Framingham, MA, USA) equipped with a Turbo V™ […]. Filtered samples (10 μL), stored on a sample tray maintained at 8 °C, were injected on a Gemini C6-Phenyl column (150 × 2.0 mm, 3 µm particles) (Phenomenex, Santa Clara, CA, USA) at 40 °C. Metabolites were separated using gradient separation at 0.4 mL/min with 0.1% aqueous FA (A) and 0.1% FA in acetonitrile (B): 5% B, 0–1 min; 5%–50% B, 1–3 min; 50% B, 3–6 min; 50%–100% B, 6–7 min; 100% B, 7–10 min (equilibration at initial conditions for 5 min).
# All mass scans were performed using electrospray ionisation in negative mode, with the following operating parameters: curtain gas, 30 psi; nebuliser gas, 50 psi; turbo gas, 60 psi; source temperature, 400 °C; ion spray voltage, −4.5 kV; declustering potential, −75 V; collision activated dissociation gas setting, high; scan speed, 4000 Da/s. […] Collision energy and spread were set at −35 V and 25 V, respectively. […]
row,metabolite present in mouse urine (relative concentrations),Substance
1,mainly,Aspalathin-O-SO3H [S1]
2,also present,Me-O-Aspalathin-O-Gluc [MeGlu1]
3,mainly,Aspalathin-O-Gluc [Glu1]
4,also present,Me-O-Aspalathin-O-SO3H [SMe1]
